Test results published in patent US10968265B2, “Antibody-coupled cyclic peptide tyrosine tyrosine compounds as modulators of neuropeptide Y receptors” (Janssen Pharmaceutica NV, priority 2016, dated 2021).

Amino acid sequences for entries named in this document (tags omitted). Residues count along the entry.
UniProt Q9ERC0, 1-381: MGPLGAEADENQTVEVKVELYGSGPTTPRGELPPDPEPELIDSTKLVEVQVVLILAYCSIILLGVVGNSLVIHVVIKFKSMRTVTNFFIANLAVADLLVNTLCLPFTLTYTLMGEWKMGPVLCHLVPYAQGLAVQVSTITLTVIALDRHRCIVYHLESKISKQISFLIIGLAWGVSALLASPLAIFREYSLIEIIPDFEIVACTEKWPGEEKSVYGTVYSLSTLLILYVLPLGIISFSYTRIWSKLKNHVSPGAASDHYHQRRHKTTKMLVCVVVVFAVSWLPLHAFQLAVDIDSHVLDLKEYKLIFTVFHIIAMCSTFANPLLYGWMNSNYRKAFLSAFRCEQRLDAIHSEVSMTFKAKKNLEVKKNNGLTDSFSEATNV
UniProt P97295, whole entry: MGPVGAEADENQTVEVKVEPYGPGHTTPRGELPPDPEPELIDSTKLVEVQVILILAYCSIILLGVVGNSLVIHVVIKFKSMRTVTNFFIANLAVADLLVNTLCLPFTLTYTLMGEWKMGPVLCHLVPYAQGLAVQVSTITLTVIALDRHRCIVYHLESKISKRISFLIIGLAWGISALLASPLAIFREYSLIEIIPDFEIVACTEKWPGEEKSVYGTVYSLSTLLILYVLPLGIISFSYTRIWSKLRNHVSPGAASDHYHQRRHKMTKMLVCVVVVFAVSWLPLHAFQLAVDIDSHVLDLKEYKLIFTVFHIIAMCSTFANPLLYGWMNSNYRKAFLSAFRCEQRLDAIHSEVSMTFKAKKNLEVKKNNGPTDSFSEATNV
UniProt Q9GK74, whole entry: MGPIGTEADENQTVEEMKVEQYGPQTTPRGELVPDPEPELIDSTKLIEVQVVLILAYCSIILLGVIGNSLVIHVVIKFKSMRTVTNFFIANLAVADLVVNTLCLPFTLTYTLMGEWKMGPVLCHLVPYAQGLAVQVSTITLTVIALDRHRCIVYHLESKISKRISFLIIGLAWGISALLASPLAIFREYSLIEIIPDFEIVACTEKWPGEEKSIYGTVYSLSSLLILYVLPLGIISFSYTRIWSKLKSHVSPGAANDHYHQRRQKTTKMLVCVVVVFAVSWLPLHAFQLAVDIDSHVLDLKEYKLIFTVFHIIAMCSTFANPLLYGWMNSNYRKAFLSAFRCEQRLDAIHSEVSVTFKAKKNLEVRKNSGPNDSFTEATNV

Tests used:
Assay type in all cases: cell-based
[1] = molecular target: T1, rat Y2 receptor (Rattus norvegicus, UniProt Q9ERC0); experiment: cAMP assay, rat Y2 receptor; details: read-out: Cross-species potency (EC50 nM) Rat Y2, Table 2
T1 construct: host or cells: GloSensor CHO-K1 (also carries the pGloSensor-23F cAMP plasmid)

[2] = molecular target: T2, mouse Y2 receptor (Mus musculus, UniProt P97295); experiment: cAMP assay, mouse Y2 receptor; details: read-out: Cross-species potency (EC50 nM) Mouse Y2, Table 2
T2 construct: expressed in transfected cells

[3] = molecular target: T3, rhesus monkey Y2 receptor (Macaca mulatta, UniProt Q9GK74); experiment: cAMP assay, rhesus monkey Y2 receptor; details: read-out: Cross-species potency (EC50 nM) Rhesus Monkey Y2, Table 2
T3 construct: expressed in transfected cells

**Q.** Which results are given for PYY3-36?
**A.** EC50 [1]: 0.5 nM; EC50 [2]: 0.03 nM; EC50 [3]: 0.06 nM
